SMILES strings stand for the structures. The list shows a part of the results, in another mix than the full data. Inconclusive results are not listed. The source made the active and inactive calls. The call rests on the fitted dose curve; in most records, active means well fitted inhibition curve with a large enough effect in the signal ratio, with a control signal flat (not every such curve was filed as active); inconclusive means small, poorly fitted or top-dose-only effect, or effect the other way, or a change in a side signal; inactive means no such curve, though single readings can be large or run the other way; the % refers to the signal ratio.
On the % scale 0 is the no-effect control and ±100 the full control effect.

Amino acid sequences for entries named in this document (tags omitted).
UniProt Q9NR56, whole entry: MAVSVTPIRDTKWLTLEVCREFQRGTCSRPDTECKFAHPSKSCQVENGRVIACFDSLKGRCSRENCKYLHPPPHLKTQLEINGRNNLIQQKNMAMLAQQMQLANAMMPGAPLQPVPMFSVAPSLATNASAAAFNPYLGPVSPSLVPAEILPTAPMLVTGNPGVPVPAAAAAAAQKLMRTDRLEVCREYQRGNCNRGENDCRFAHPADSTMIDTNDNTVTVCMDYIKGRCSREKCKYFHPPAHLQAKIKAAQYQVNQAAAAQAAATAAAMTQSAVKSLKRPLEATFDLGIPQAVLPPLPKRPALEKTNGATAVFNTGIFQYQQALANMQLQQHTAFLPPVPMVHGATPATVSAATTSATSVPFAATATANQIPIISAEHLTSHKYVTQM

In this assay the target is Muscleblind-like protein 1 (Homo sapiens) (UniProt Q9NR56). As to the kind of experiment: qHTS Assay for Inhibitors of MBNL1-poly(CUG) RNA binding. As to conditions: TR-FRET MBNL1-His/biotin-(CUG)12 binding, 665/545 ratio; at 57.5 µM (top of the series). For orientation: qHTS replaces the single test concentration by a dilution series.
In the case of `COc1ccc(C(=O)NCC2(N3CCOCC3)CCCCC2)cc1OC`, the activity change, negative = inhibition is inactive: -3%. For `O=C(OC1CN2CCC1CC2)C1c2ccccc2C=Cc2ccccc21` (configuration not stated) the value was inactive: 11.2%; for `CCOC(=O)N1CCC(Nc2ccc(C)cc2)CC1`, inactive: -2.55%. For `N/C(=N\O)c1c(N)no[n+]1[O-]` the value was inactive: 9.13%. As for `CC(C)(C)OC(=O)N1CCC(N(C(=O)c2ccccc2)c2ccc(Cl)cc2)CC1`, the activity change, negative = inhibition is inactive: -8.1%.

On to `CN(C)C1(CNC(=O)c2cccc(C#N)c2)CCCCC1`, for which the activity change, negative = inhibition is inactive: -10.4%.

With `c1ccc(CN2CCC(Nc3ccccc3)CC2)cc1`, the activity change, negative = inhibition was inactive: -5.42%. Regarding `CCCN1CCC(Nc2cc(OC)cc(OC)c2)CC1`, the activity change, negative = inhibition is inactive: 2.61%. In the case of `Fc1ccccc1NC1CCN(Cc2ccccc2)CC1`, the activity change, negative = inhibition is inactive: -11.8%.

Regarding `COc1cc(OC)cc(C(=O)NCC2(N3CCCCC3)CCCCC2)c1`, the activity change, negative = inhibition was inactive: -7.44%. For `CN(C)c1ccc(C(=O)NCC2(N3CCCCC3)CCCCC2)cc1` the value was inactive: -6.83%; for `CCN1CCC(Nc2cccc(F)c2)CC1`, inactive: -6.49%. The value for `CC(C)(C)OC(=O)N1CCC(Nc2ccccc2)CC1` was inactive: -4.7%; that for `O=C(O)C1(Nc2ccccc2)CCN(Cc2ccccc2)CC1` was inactive: -3.68%.

As to `CCCOc1ccc(C(=O)NCC2(N(C)C)CCCCC2)cc1`, the activity change, negative = inhibition was inactive: -1.78%. For the compound `CCOc1ncccc1C(=O)NCC1(N2CCOCC2)CCCCC1`, the activity change, negative = inhibition was inactive: -7.11%.

Take `CN1CCC(Nc2ccc(F)c(Cl)c2)CC1`: the activity change, negative = inhibition is inactive: -3.13%.

For the compound `CN1CCC(Nc2ccc(Cl)cc2)CC1`, the activity change, negative = inhibition was inactive: -4.27%. Turning to `COc1cccc(C(=O)N(c2cc(C)cc(C)c2)C2CCN(C(=O)OC(C)(C)C)CC2)c1`, the activity change, negative = inhibition is inactive: -3.86%. `COc1cc(OC)cc(C(=O)NCC2(N3CCOCC3)CCCCC2)c1`: the activity change, negative = inhibition is inactive: -1.08%. For `CCC(CO)(C(=O)OC1CN2CCC1CC2)c1ccccc1` (configuration not stated) the value was inactive: 8.57%; for `CSc1ccccc1C(=O)NCC1(N2CCCCC2)CCCCC1`, inactive: -6.07%; for `COc1ccc(C(=O)NCC2(N3CCCCC3)CCCCC2)cc1`, inactive: 5.43%. The value for `CC(C)(C)OC(=O)N1CCC(N(C(=O)c2ccccc2)c2ccc(F)cc2)CC1` was inactive: 0.215%. Turning to `COc1ccc(C(=O)NCC2(N3CCCCC3)CCCCC2)c(OC)c1OC`, the activity change, negative = inhibition was inactive: -9.01%. With `O=C(NCC1(N2CCCCC2)CCCCC1)c1ccc(=O)[nH]c1`, the activity change, negative = inhibition was inactive: 3.33%.

For `N#CC1(Nc2ccccc2)CCN(Cc2ccccc2)CC1`, the activity change, negative = inhibition was inactive: -5.95%. The value for `O=C(OC1CN2CCC1CC2)C1c2ccccc2Oc2ccccc21` (configuration not stated) was inactive: 17.2%; that for `CCOC(=O)N1CCC(Nc2ccc(OC)cc2)CC1` was inactive: -0.934%; that for `Cc1cc(C)cc(N(C(=O)c2ccccc2)C2CCN(C(=O)OC(C)(C)C)CC2)c1` was inactive: -1.79%.

Regarding `O=C(NCC1(N2CCOCC2)CCCCC1)c1cc2ccccc2o1`, the activity change, negative = inhibition was inactive: 11.1%. For `O=C(NCC1(N2CCCCC2)CCCCC1)c1ccc(F)cc1` the value was inactive: 1.24%; for `CCOC(=O)N1CCC(Nc2ccc(F)cc2)CC1`, inactive: -2.18%. The value for `COc1ccc(NC2CCN(CCc3ccccc3)CC2)c(OC)c1` was inactive: -3.16%; that for `CCOC(=O)N1CCC(Nc2cccc(C)c2)CC1` was inactive: 0.561%. For `COc1cc(C(=O)NCC2(N(C)C)CCCCC2)ccc1OC(F)F` the value was inactive: 0.79%; for `CCN1CCC(Nc2ccc(Cl)cc2)CC1`, inactive: -0.989%; for `N#CC1(Nc2ccccc2)CCN(CCc2ccccc2)CC1`, inactive: -14.7%. In the case of `O=C(NCC1(N2CCCCC2)CCCCC1)c1ccc(OC(F)F)cc1`, the activity change, negative = inhibition is inactive: -0.877%. As for `COc1cc(C(=O)NCC2(N3CCCCC3)CCCCC2)ccc1OC(F)F`, the activity change, negative = inhibition was inactive: 14.3%. As to `COc1ccc(NC2CCN(C(=O)OC(C)(C)C)CC2)cc1`, the activity change, negative = inhibition was inactive: -1.24%. For `O=C(NCC1(N2CCCCC2)CCCCC1)c1cccc(C(F)(F)F)c1` the value was inactive: -4.74%; for `COc1cc(OC)c(C(=O)NCC2(N(C)C)CCCCC2)cc1OC`, inactive: -0.509%; for `CC(C)c1ccc(NC2CCN(C(=O)OC(C)(C)C)CC2)cc1`, inactive: 0.462%. The value for `COc1ccc(CN(CCCl)CCCl)cc1Cl` was inactive: -14%; that for `CN(C)c1cccc(C(=O)NCC2(N3CCCCC3)CCCCC2)c1` was inactive: 15%; that for `CCCOc1ccc(C(=O)NCC2(N(C)C)CCCCC2)cc1OC` was inactive: -6.54%.

The values above are taken from PubChem BioAssay AID2675 (National Center for Advancing Translational Sciences (NCATS), 2010).
